The values below are quoted from earlier work in patent US20200353057A1, “REDUCING IMMUNOGENICITY TO PEGLOTICASE” (Horizon Pharma Rheumatology LLC, priority 2019, published 2020).

The subject of this data set is participants taking colchicine for gout flare prophylaxis. Conditions: prophylaxis of gout.

As for `COc1cc2c(c(OC)c1OC)-c1ccc(OC)c(=O)cc1[C@@H](NC(C)=O)CC2` [colchicine], the Diarrhea is 23% and the Pharyngolaryngeal pain is 3%.
